{
  "source": "patent US20100247590A1",
  "about": "“Peptide-Based Systems For Delivery Of Cosmetic Agents” (JOHNSON & JOHNSON, priority 2009, published 2010)",
  "assay": "Visual color assessment of hair treated with peptide then streptavidin-coated iron oxide beads (sequential coloring)",
  "conditions": "for color measurement (0-5 color scale): 500 nm particles",
  "data": [
    {"substance": "HCP5-GGSGPGSGG-HCP5-K [(HCP5)2-biotin]", "values": [
      {"measurement": "color scale score (0-5)", "setting": "Table 16, streptavidin-coated iron oxide beads, sequential coloring method", "result": 4},
      {"measurement": "color measurement (0-5 color scale)", "setting": "Table 17, initial, before washing with water", "result": 4},
      {"measurement": "color measurement (0-5 color scale)", "setting": "Table 19, after 0.25% SLES wash", "result": 2}
    ]}
  ]
}
